Membrane permeability of cyclic peptides

Values of Kelly et al. 2021, doi:10.1021/jacs.0c06115, as listed in CycPeptMPDB.

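The data file gives no further conditions (lipid, pH, time, direction or concentration), and values from different papers need not be comparable. The list need not hold all peptides of the study. Peptides that the database sets to -10, its floor, are left out.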

PAMPA measures passive passage through an artificial lipid membrane.
Values are log10 P with P in cm/s, so -5 is more permeable than -7.

structure (SMILES),PAMPA (log10 cm/s)
CC(=O)N1CCC[C@H]1C(=O)N(C)[C@H](CC(C)C)C(=O)N[C@@H]1C(=O)N(C)[C@@H](CC(C)C)C(=O)N(C)[C@H](CC(C)C)C(=O)N(C)[C@H](CC(C)C)C(=O)N(C)[C@@H](C)C(=O)N[C@@H](CC(C)C)C(=O)N2CCC[C@H]2C(=O)O[C@@H]1C,-5.23
CC(=O)N1CCC[C@H]1C(=O)N(C)[C@H](CC(C)C)C(=O)N[C@@H]1C(=O)N(C)[C@H](CC(C)C)C(=O)N[C@H](CC(C)C)C(=O)N(C)[C@H](CC(C)C)C(=O)N(C)[C@H](C)C(=O)N[C@@H](CC(C)C)C(=O)N2CCC[C@H]2C(=O)O[C@@H]1C,-5.10
CC(=O)N1CCC[C@H]1C(=O)N(C)[C@H](CC(C)C)C(=O)N[C@@H]1C(=O)N[C@@H](CC(C)C)C(=O)N(C)[C@H](CC(C)C)C(=O)N(C)[C@H](CC(C)C)C(=O)N(C)[C@H](C)C(=O)N[C@H](CC(C)C)C(=O)N2CCC[C@@H]2C(=O)O[C@@H]1C,-5.74
CC(=O)N1CCC[C@H]1C(=O)N[C@@H]1C(=O)N(C)[C@H](CC(C)C)C(=O)N(C)[C@@H](CC(C)C)C(=O)N(C)[C@H](CC(C)C)C(=O)N(C)[C@@H](CC(C)C)C(=O)N(C)[C@H](C)C(=O)N[C@@H](CC(C)C)C(=O)N2CCC[C@@H]2C(=O)O[C@@H]1C,-4.91
CC(=O)N1CCC[C@@H]1C(=O)N(C)[C@H](CC(C)C)C(=O)N[C@@H]1C(=O)N[C@@H](CC(C)C)C(=O)N(C)[C@@H](CC(C)C)C(=O)N(C)[C@H](CC(C)C)C(=O)N[C@@H](C)C(=O)N[C@H](CC(C)C)C(=O)N2CCC[C@H]2C(=O)O[C@@H]1C,-6.68
CC(=O)N1CCC[C@H]1C(=O)N(C)[C@H](CC(C)C)C(=O)N[C@@H]1C(=O)N[C@H](CC(C)C)C(=O)N(C)[C@H](CC(C)C)C(=O)N(C)[C@H](CC(C)C)C(=O)N[C@@H](C)C(=O)N[C@@H](CC(C)C)C(=O)N2CCC[C@H]2C(=O)O[C@@H]1C,-6.38
CC(=O)N1CCC[C@@H]1C(=O)N(C)[C@@H](CC(C)C)C(=O)N[C@@H]1C(=O)N[C@@H](CC(C)C)C(=O)N[C@@H](CC(C)C)C(=O)N(C)[C@H](CC(C)C)C(=O)N[C@@H](C)C(=O)N[C@H](CC(C)C)C(=O)N2CCC[C@H]2C(=O)O[C@@H]1C,-6.48
CC(=O)N1CCC[C@@H]1C(=O)N(C)[C@H](CC(C)C)C(=O)N[C@@H]1C(=O)N[C@H](CC(C)C)C(=O)N(C)[C@H](CC(C)C)C(=O)N(C)[C@H](CC(C)C)C(=O)N(C)[C@H](C)C(=O)N[C@H](CC(C)C)C(=O)N2CCC[C@@H]2C(=O)O[C@@H]1C,-5.44
CC(=O)N1CCC[C@@H]1C(=O)N(C)[C@@H](CC(C)C)C(=O)N[C@@H]1C(=O)N[C@@H](CC(C)C)C(=O)N[C@H](CC(C)C)C(=O)N(C)[C@@H](CC(C)C)C(=O)N[C@@H](C)C(=O)N[C@H](CC(C)C)C(=O)N2CCC[C@H]2C(=O)O[C@@H]1C,-6.14
CC(=O)N1CCC[C@@H]1C(=O)N(C)[C@H](CC(C)C)C(=O)N[C@@H]1C(=O)N[C@H](CC(C)C)C(=O)N[C@H](CC(C)C)C(=O)N[C@@H](CC(C)C)C(=O)N(C)[C@@H](C)C(=O)N[C@H](CC(C)C)C(=O)N2CCC[C@H]2C(=O)O[C@@H]1C,-5.92
CC(=O)N1CCC[C@H]1C(=O)N(C)[C@H](CC(C)C)C(=O)N[C@@H]1C(=O)N(C)[C@@H](CC(C)C)C(=O)N(C)[C@H](CC(C)C)C(=O)N(C)[C@@H](CC(C)C)C(=O)N(C)[C@@H](C)C(=O)N[C@H](CC(C)C)C(=O)N2CCC[C@@H]2C(=O)O[C@@H]1C,-5.29
CC(=O)N[C@@H]1C(=O)N2CCC[C@H]2C(=O)N(C)[C@H](CC(C)C)C(=O)N(C)[C@@H](CC(C)C)C(=O)N(C)[C@H](CC(C)C)C(=O)N(C)[C@@H](CC(C)C)C(=O)N(C)[C@H](C)C(=O)N[C@@H](CC(C)C)C(=O)N2CCC[C@@H]2C(=O)O[C@@H]1C,-5.10
CC(=O)N1CCC[C@@H]1C(=O)N(C)[C@H](CC(C)C)C(=O)N[C@@H]1C(=O)N[C@@H](CC(C)C)C(=O)N(C)[C@H](CC(C)C)C(=O)N(C)[C@H](CC(C)C)C(=O)N[C@@H](C)C(=O)N[C@H](CC(C)C)C(=O)N2CCC[C@@H]2C(=O)O[C@@H]1C,-6.48
CC(=O)N1CCC[C@H]1C(=O)N(C)[C@H](CC(C)C)C(=O)N[C@@H]1C(=O)N[C@H](CC(C)C)C(=O)N(C)[C@H](CC(C)C)C(=O)N(C)[C@@H](CC(C)C)C(=O)N(C)[C@H](C)C(=O)N[C@@H](CC(C)C)C(=O)N2CCC[C@@H]2C(=O)O[C@@H]1C,-5.23
CC(=O)N1CCC[C@@H]1C(=O)N(C)[C@H](CC(C)C)C(=O)N[C@@H]1C(=O)N[C@H](CC(C)C)C(=O)N[C@H](CC(C)C)C(=O)N[C@H](CC(C)C)C(=O)N[C@H](C)C(=O)N[C@@H](CC(C)C)C(=O)N2CCC[C@@H]2C(=O)O[C@@H]1C,-8.70
CC(=O)N1CCC[C@@H]1C(=O)N(C)[C@@H](CC(C)C)C(=O)N[C@@H]1C(=O)N(C)[C@@H](CC(C)C)C(=O)N[C@@H](CC(C)C)C(=O)N(C)[C@@H](CC(C)C)C(=O)N[C@@H](C)C(=O)N[C@@H](CC(C)C)C(=O)N2CCC[C@H]2C(=O)O[C@@H]1C,-5.47
CC(=O)N1CCC[C@H]1C(=O)N[C@@H]1C(=O)N[C@H](CC(C)C)C(=O)N[C@H](CC(C)C)C(=O)N(C)[C@H](CC(C)C)C(=O)N[C@@H](CC(C)C)C(=O)N[C@@H](C)C(=O)N[C@@H](CC(C)C)C(=O)N2CCC[C@@H]2C(=O)O[C@@H]1C,-5.57
CC(=O)N1CCC[C@H]1C(=O)N(C)[C@H](CC(C)C)C(=O)N[C@@H]1C(=O)N(C)[C@@H](CC(C)C)C(=O)N(C)[C@H](CC(C)C)C(=O)N(C)[C@@H](CC(C)C)C(=O)N(C)[C@H](C)C(=O)N[C@@H](CC(C)C)C(=O)N2CCC[C@@H]2C(=O)O[C@@H]1C,-5.41
CC(=O)N1CCC[C@@H]1C(=O)N(C)[C@H](CC(C)C)C(=O)N[C@@H]1C(=O)N[C@H](CC(C)C)C(=O)N[C@H](CC(C)C)C(=O)N(C)[C@H](CC(C)C)C(=O)N(C)[C@H](C)C(=O)N[C@H](CC(C)C)C(=O)N2CCC[C@H]2C(=O)O[C@@H]1C,-6.79

A selection of 2 entries from above:

structure (SMILES),PAMPA (log10 cm/s)
CC(=O)N1CCC[C@H]1C(=O)N(C)[C@H](CC(C)C)C(=O)N[C@@H]1C(=O)N[C@@H](CC(C)C)C(=O)N(C)[C@H](CC(C)C)C(=O)N(C)[C@H](CC(C)C)C(=O)N(C)[C@H](C)C(=O)N[C@H](CC(C)C)C(=O)N2CCC[C@@H]2C(=O)O[C@@H]1C,-5.74
CC(=O)N1CCC[C@H]1C(=O)N(C)[C@H](CC(C)C)C(=O)N[C@@H]1C(=O)N(C)[C@@H](CC(C)C)C(=O)N(C)[C@H](CC(C)C)C(=O)N(C)[C@@H](CC(C)C)C(=O)N(C)[C@@H](C)C(=O)N[C@H](CC(C)C)C(=O)N2CCC[C@@H]2C(=O)O[C@@H]1C,-5.29